# From patent US8765669B2, “Glycosylated GLP-1 peptide” (Glytech, Inc., priority 2008, dated 2014)
# Sequences of proteins named here, by UniProt entry; tags and fusion partners are left off. A change or cut given only in a name is not applied to a line headed by its entry.
# UniProt P22411: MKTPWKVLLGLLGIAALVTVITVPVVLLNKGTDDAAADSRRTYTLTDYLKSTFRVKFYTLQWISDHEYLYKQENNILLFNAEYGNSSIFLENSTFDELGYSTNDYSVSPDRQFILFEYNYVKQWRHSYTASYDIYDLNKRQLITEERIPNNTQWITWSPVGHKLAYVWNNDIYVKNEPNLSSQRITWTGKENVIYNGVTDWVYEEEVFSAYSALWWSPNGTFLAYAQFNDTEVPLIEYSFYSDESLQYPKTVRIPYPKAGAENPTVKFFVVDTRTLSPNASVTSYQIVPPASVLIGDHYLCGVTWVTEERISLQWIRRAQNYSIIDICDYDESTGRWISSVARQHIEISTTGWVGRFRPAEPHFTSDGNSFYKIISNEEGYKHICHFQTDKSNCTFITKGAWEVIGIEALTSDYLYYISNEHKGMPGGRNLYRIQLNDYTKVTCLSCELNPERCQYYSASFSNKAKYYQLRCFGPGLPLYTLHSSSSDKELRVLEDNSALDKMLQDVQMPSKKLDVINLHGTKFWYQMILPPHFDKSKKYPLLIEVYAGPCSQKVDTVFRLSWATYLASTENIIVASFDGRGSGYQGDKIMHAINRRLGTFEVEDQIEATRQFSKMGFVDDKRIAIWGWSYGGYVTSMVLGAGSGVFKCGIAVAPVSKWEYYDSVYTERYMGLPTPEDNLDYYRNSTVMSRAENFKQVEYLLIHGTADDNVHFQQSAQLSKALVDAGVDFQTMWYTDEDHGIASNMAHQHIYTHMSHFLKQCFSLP
# Target: T1, DPP-IV (dipeptidyl peptidase IV from porcine kidney) (Sus scrofa, UniProt P22411)
# T1 construct: dipeptidyl peptidase IV from porcine kidney, product of SIGMA; purchased SIGMA; host or cells: porcine kidney (tissue-derived enzyme)
# Experiment: Test of resistance to dipeptidyl peptidase IV (DPP-IV)
# Format: in vitro ADME
# Conditions: half-life (t1/2) in DPP-IV solution at 37° C., GLP-1 of Comparative Example 1 defined as standard (=1)
# Procedure: Each solution mixture was adjusted with 100 mM sodium phosphate buffer to 100 μl in total and allowed to react at 37° C. A 10 μaliquot of the reaction solution was mixed with 15 μl of 10% trifluoroacetic acid prepared in advance in another Eppendorf tube.
substance,measurement,value
26Lys-Asialo Oligosaccharide Chain Asn Linker-Modified Arg34GLP-1 (7-37) Peptide [Example 13],Relative Resistance,5.7
